Laboratory results taken from ChEMBL document CHEMBL4402526, “Design and Synthesis of Fungal-Selective Resorcylate Aminopyrazole Hsp90 Inhibitors” (J Med Chem, 2020).

Experiment: Displacement of Cy3-labeled geldanamycin from HSP90 in Candida albicans clinical isolate 2 cell lysate measured after […] by fluorescence polarization assay
Assay type: subcellular

Compound	EC50 [nM]
Cc1ccc(-c2cc(Nc3cc(O)cc(O)c3C(=O)N3Cc4cccnc4C3)n(C)n2)cc1	1780

Experiment: Displacement of Cy3-labeled geldanamycin from HSP90 in Cryptococcus neoformans H99 cell lysate measured after […] by fluorescence polarization assay
Assay type: subcellular

Compound	EC50 [nM]
O=C(c1c(O)cc(O)cc1Nc1cc(-c2ccccc2)nn1C1CCCCC1)N1Cc2cn[nH]c2C1	419
Cn1nccc1Nc1cc(O)cc(O)c1C(=O)N1Cc2cn[nH]c2C1	142
COc1ccc(Cn2nc(C)cc2Nc2cc(O)cc(O)c2C(=O)N(C)CC2CC2)cc1	1330
CC(C)(C)n1nc(-c2ccccc2)cc1Nc1cc(O)cc(O)c1C(=O)N1Cc2cn[nH]c2C1	379
COc1ccc(Cn2ncc(Cc3ccccc3)c2Nc2cc(O)cc(O)c2C(=O)N2Cc3ccccc3C2)cc1	1760
O=C(c1c(O)cc(O)cc1Nc1cc(-c2ccccc2)nn1C1CCCCC1)N1Cc2cccnc2C1	615
O=C(c1c(O)cc(O)cc1Nc1ccnn1Cc1ccco1)N1Cc2cccnc2C1	106
Cn1nc(-c2ccccc2)cc1Nc1cc(O)cc(O)c1C(=O)N1Cc2cccnc2C1	127
Cn1nccc1Nc1cc(O)cc(O)c1C(=O)N1Cc2cccnc2C1	286
Cc1ccc(-c2cc(Nc3cc(O)cc(O)c3C(=O)N3Cc4cccnc4C3)n(C)n2)cc1	1780
CC(C)(C)n1nc(-c2ccccc2)cc1Nc1cc(O)cc(O)c1C(=O)N1Cc2cccnc2C1	517
COc1ccc(Cn2nc(C)cc2Nc2cc(O)cc(O)c2C(=O)N(C)Cc2ccccc2)cc1	4810
COc1ccc(Cn2ncc(C(C)C)c2Nc2cc(O)cc(O)c2C(=O)N2Cc3ccccc3C2)cc1	396
COc1ccc(Cn2ncc(-c3ccccc3)c2Nc2cc(O)cc(O)c2C(=O)N2Cc3ccccc3C2)cc1	1620
CC(C)n1nccc1Nc1cc(O)cc(O)c1C(=O)N1Cc2ccccc2C1	125
Cc1ccc(Cn2nc(C)cc2Nc2cc(O)cc(O)c2C(=O)N2Cc3ccccc3C2)cc1	252
O=C(c1c(O)cc(O)cc1Nc1ccnn1Cc1cccnc1)N1Cc2cccnc2C1	207
